## AlphaSeq binding of Ab-14 heavy chain variants to a spike HR2 peptide

All variants were tested on one target, the spike HR2 peptide PDVDLGDISGINAS (SARS-CoV-2).

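The parent was found by panning a naive human phage display library on the peptide. AAYL49 was designed without a model: most single CDR substitutions and a random sample of double and triple ones. Affinity was read by AlphaSeq, a pooled yeast mating assay with surface-displayed partners. Pairs that bind mate more often; barcode pairs of the diploids are counted by sequencing. Each replicate has its own calibration line, from reference interactions of the BCL2 family. The assay was run in three technical replicates.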

Each scFv is VH, a (GGGGS)3 linker, VL, as in the parent Ab-14, and differs from it in the CDRs of the heavy chain only.
VH: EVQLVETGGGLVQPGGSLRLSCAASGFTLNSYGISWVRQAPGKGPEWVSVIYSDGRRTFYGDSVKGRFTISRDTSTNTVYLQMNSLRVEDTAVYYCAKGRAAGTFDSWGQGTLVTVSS
VL: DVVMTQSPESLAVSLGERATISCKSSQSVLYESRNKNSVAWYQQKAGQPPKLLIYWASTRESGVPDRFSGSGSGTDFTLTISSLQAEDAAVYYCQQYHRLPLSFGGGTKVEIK

Variants are written as CDR1, CDR2 and CDR3 of the heavy chain (limits as in the source). Parent: GFTLNSYGIS, VIYSDGRRTFYGDSVK, GRAAGTFDS. Numbers give log10(Kd / nM), so 0 is 1 nM and 3 is 1 µM. Smaller is tighter. "n.d." means that the variant was in the library but no mating with the target was seen in that replicate; the authors take this as a sign of poor binding, and no number exists. Background: pairings of library AAYL49 with three empty control strains gave a value in 15% of cases (median 4.06, 5th percentile 2.83). Values in that range, when seen in few replicates, are hard to tell from nonspecific mating. The control count says in how many pairings with the empty strains this scFv gave a signal, with their mean in brackets. In this assay the parent's reference entry averaged 0.65; its copy inside this library read 4.11 (one replicate of three).

| # | CDR-H1 | CDR-H2 | CDR-H3 | log10 Kd, replicates | empty controls |
|---|---|---|---|---|---|
| 1 | GFTLNSYGIP | VIYSIGRRTFYGDSVK | GRATGTFDS | n.d. n.d. n.d. | 3 of 9 (3.70) |
| 2 | GFTLNVRGIS | VIYSDGRRLFYGDSVK | GRAAGTFDS | 0.66 1.45 1.18 | 0 of 9 |
| 3 | GFTLESYGIS | VIYSQGRRTFYGDSVK | PRAAGTFDS | n.d. 5.14 n.d. | 4 of 9 (5.03) |
| 4 | GATLWSYGIS | VIYSDGRRTFYGDSVK | GRAAGTFDS | 3.08 2.68 3.22 | 3 of 9 (3.89) |
| 5 | GFTLESYHIS | VIYSDGRRTFYGDSVK | GRAAGTFDS | n.d. n.d. n.d. | 0 of 9 |
| 6 | YFTCNSYGIS | VIYSDGARTFYGDSVK | GRAAGTFDS | n.d. n.d. n.d. | 0 of 9 |
| 7 | GFTLNSYGID | VIYSDGRRTFYGDSGK | HRAAGTFDS | n.d. n.d. n.d. | 0 of 9 |
| 8 | GFTLNSYGIS | VIYNDGRRTFYHDSVK | GRAAGTFDS | 3.73 3.04 n.d. | 2 of 9 (4.47) |
| 9 | GFTLNYYGIS | VIYSQRRRTFYGDSVK | GRAAGTFDS | 5.20 n.d. n.d. | 0 of 9 |
| 10 | GFTDNSYGIS | VIYSWGRRTFYGDSVG | GRAAGTFDS | n.d. n.d. n.d. | 0 of 9 |
| 11 | GFTLNSYGIS | VIYSDGRRTWYGDSVK | GRAAGVFDS | 4.25 n.d. n.d. | 2 of 9 (3.65) |
| 12 | GFTLESYGIT | VIYSDGHRTFYGDSVK | GRAAGTFDS | n.d. n.d. n.d. | 2 of 9 (2.90) |
| 13 | GFTLNSYGIS | VIYSDGRRTFYGMHVK | GSAAGTFDS | n.d. 2.17 2.42 | 0 of 9 |
| 14 | GFTLPSYGIS | VIYSDGMRTFYGDSVK | GRAAGMFDS | 5.36 4.54 n.d. | 2 of 9 (4.75) |
| 15 | GFCLNSYGIS | YIYSDGRRTFYRDSVK | GRAAGTFDS | n.d. n.d. n.d. | 0 of 9 |
| 16 | GFTLWSYGIS | VIYSDGRRTFYGDSVK | GRAAGVIDS | 3.98 4.78 3.71 | 4 of 9 (4.22) |
| 17 | GFTLNSYGGS | VIYSDKRRTFYGDSVK | VRAAGTFDS | n.d. n.d. n.d. | 1 of 9 (2.30) |
| 18 | GFTLNSYGIS | VIYSDGRREFMTDSVK | GRAAGTFDS | 1.16 1.28 1.32 | 5 of 9 (4.37) |
| 19 | GFTLNSYGIS | VIHSDGRRTFYGDSVC | GRDAGTFDS | n.d. n.d. n.d. | 2 of 9 (3.81) |
| 20 | GFTLNSYGRS | VIYSDGRRTFYKDSVK | GRWAGTFDS | 1.67 2.40 1.75 | 0 of 9 |
| 21 | GFELNSYGIS | VIYSDPRRTFYRDSVK | GRAAGTFDS | 3.96 n.d. n.d. | 2 of 9 (4.09) |
| 22 | GFTLNSYGIS | VICSMGRRTFYMDSVK | GRAAGTFDS | 6.00 n.d. n.d. | 1 of 9 (3.89) |
| 23 | GFTLNSYGIE | VITSDGRRTFYGDSVK | GRAALTFDS | 3.88 n.d. n.d. | 2 of 9 (4.27) |
| 24 | GVTLNSYGIS | VISSDGRRTFYGDSAK | GRAAGTFDS | n.d. n.d. n.d. | 0 of 9 |
| 25 | GFTLTSYGIP | VIYSDGRRTFYGDSVK | GRAPGTFDS | n.d. 3.64 4.37 | 4 of 9 (4.28) |
| 26 | GVTLNSYGIS | VIVSDGRRTFYGDSVL | GRAAGTFDS | n.d. n.d. n.d. | 0 of 9 |
| 27 | GFTLNSCGIS | VIYSDERRTFYGDSVK | GRAAGTFWS | n.d. 3.25 n.d. | 0 of 9 |
| 28 | GFTLNHYGIS | VIYSPGQRTFYGDSVK | GRAAGTFDS | n.d. n.d. n.d. | 0 of 9 |
| 29 | GHTLNSYGFS | VIYSDGRRTFYGDAVK | GRAAGTFDS | n.d. n.d. n.d. | 0 of 9 |
| 30 | GFTLNIYGIS | VIYSDGQRTFYGDSVK | GRAAGTFDG | n.d. n.d. n.d. | 1 of 9 (3.16) |
| 31 | GFTLNSYWIW | VIYSDGRRTFYGLSVK | GRAAGTFDS | n.d. n.d. n.d. | 0 of 9 |

Source: Engelhart et al. 2022 (doi:10.1038/s41597-022-01779-4), MIT Lincoln Laboratory and A-Alpha Bio; data file from the FLAb repository.